Earlier results in patent US10100331B2, “Reagent for gene-drug therapeutics” (Agency for Science, Technology and Research, priority 2012, dated 2018).

Chains of the proteins cited; added tags and fusions are not shown. Lines headed by an entry give the natural chain unless they say otherwise; changes in a name come on top.
UniProt O15379: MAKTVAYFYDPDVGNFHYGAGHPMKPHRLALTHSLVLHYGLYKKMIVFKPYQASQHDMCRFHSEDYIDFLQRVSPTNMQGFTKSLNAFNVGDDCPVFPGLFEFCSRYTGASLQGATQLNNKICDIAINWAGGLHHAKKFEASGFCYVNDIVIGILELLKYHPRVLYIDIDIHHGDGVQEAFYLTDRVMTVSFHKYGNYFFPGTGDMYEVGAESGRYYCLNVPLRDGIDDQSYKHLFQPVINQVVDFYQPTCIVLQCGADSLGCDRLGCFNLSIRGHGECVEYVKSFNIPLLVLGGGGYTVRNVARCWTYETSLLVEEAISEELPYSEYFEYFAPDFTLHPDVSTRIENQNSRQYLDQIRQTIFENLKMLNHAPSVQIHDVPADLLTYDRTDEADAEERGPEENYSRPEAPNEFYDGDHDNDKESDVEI

Molecular target: HDAC3 (Homo sapiens, UniProt O15379)
Conditions: cited from earlier work

CCCC(CCC)C(=O)O [Valproic Acid]
IC50: 4.18 mM
